{"source": "patent US10501644B2", "about": "“Reactive surface coating having chemical decontamination and biocidal properties” (dated 2019)", "assay": "Live agent testing of HD with hydrogen peroxide solutions", "details": "solution", "data": [{"smiles": "OO", "values": [{"measurement": "hydrogen peroxide concentration needed to be effective alone against HD", "value": 5, "unit": "%"}]}]}
